Reference: patent publication US9156815B2, “Salt of (R)-3-(6-amino-pyridin-3-yl)-2-(1-Cyclohexyl-1H-imidazol-4-yl) ethyl propionate” (Sanofi, priority 2011, dated 2015)

Assay: Salt screening of the API with acids and solvents, XRPD measurement
Type: physicochemical
Design: key: NKP means no crystalline phase; KFA means free acid crystallizes
Settings: API + acid
Experimental: The molar ratio between the H^+ concentration of the acid and of the API is 2 (for details see table 2). In each cavity of the microtiter plate, 68 microliters of the dissolved API are mixed with 40 microliters of the 0.1 normal acid solutions.
68 microliters of the dissolved API are pipetted into each cavity of a 96 microtiter plate. Then, in each case 40 microliters of the acids dissolved as in table 2 are added according to the scheme as detailed in table 3. The microtiter plate is shaken at room temperature for 20 min so that an equilibrium is formed in the cavities. Evaporation of the solvents at room temperature in a stream of nitrogen for 2 hours. Then, in each case 40 microliters of the solvents according to the scheme as detailed in table 3 are added. The microtiter plate is shaken at room temperature for 20 min so that an equilibrium is formed in the cavities. Evaporation of the solvent then takes place at room temperature in a stream of nitrogen for 2 hours. Finally, XRPD measurement is carried out.

Row | Substance | XRPD result of salt screening (solvent 2-Methyl-1-propanol) | XRPD result of salt screening (solvent 2-Propanol) | XRPD result of salt screening (solvent Butyl acetate) | XRPD result of salt screening (solvent Ethanol) | XRPD result of salt screening (solvent Methanol) | XRPD result of salt screening (solvent Methyl ethyl ketone) | XRPD result of salt screening (solvent Water) | XRPD result of salt screening (solvent Water:methanol 1:1)
1 | Acetic acid | NKP | NKP | NKP | NKP | NKP | NKP | NKP | NKP
2 | Hydrochloric acid | NKP | NKP | NKP | NKP | NKP | NKP | NKP | NKP
3 | Phosphoric acid | NKP | NKP | NKP | NKP | NKP | NKP | NKP | NKP
4 | Succinic acid | KFA | KFA | KFA | KFA | NKP | NKP | NKP | NKP
